Laboratory results: patent US10562843B2 (dated 2020)
Where a name gives a salt, the structure may show the parent alone.

Tests used:
human β2-AR [1] = biological target: T1, human β2-AR (Homo sapiens, UniProt P07550)
human β2-AR [2] = biological target: T1, human β2-AR; assay: biochemical

Row | Structure (SMILES) | Ki β1/Ki β2 (human β2-AR [1]) | Kd (human β2-AR [2]) [µM]
1 | C[C@H](Cc1ccc(N)cc1)NC[C@@H](O)c1cc(O)cc(O)c1.O=C(O)/C=C/C(=O)O (racemic) [(S,R)-3, (S,R)-(+)-5-{2-[2-(4-Aminophenyl)-1-methylethylamino]-1-hydroxyethyl}-1,3-benzenediol Fumarate] | 3 | 
2 | CCCCC[C@@H](C)NC[C@@H](O)c1cc(O)cc(O)c1 (racemic) [(S,R)-6, (S,R)-(+)-5-[1-Hydroxy-2-(1-methylhexylamino)ethyl]-1,3-benzenediol Fumarate] |  | ≥ 100
3 | C[C@H](Cc1ccc(N)cc1)NC[C@H](O)c1cc(O)cc(O)c1.O=C(O)/C=C/C(=O)O [(R,R)-3, (R,R)-(−)-5-{2-[2-(4-Aminophenyl)-1-methylethylamino]-1-hydroxyethyl}-1,3-benzenediol Fumarate] | 9 | 
4 | C[C@@H](Cc1ccc(N)cc1)NC[C@H](O)c1cc(O)cc(O)c1.O=C(O)/C=C/C(=O)O [(R,S)-3, (R,S)-(−)-5-{2-[2-(4-Aminophenyl)-1-methylethylamino]-1-hydroxyethyl}-1,3-benzenediol Fumarate] | 4 | 
